# Antibody variant affinities, Ab-14 light chain, assay B

Reference: Li et al. 2023, doi:10.1038/s41467-023-39022-2. File: FLAb, binding data.

Target peptide (SARS-CoV-2 spike, HR2 region): PDVDLGDISGINAS

Parent scFv Ab-14: VH joined to VL by three GGGGS repeats. Changes lie in the light chain CDRs alone.
VH: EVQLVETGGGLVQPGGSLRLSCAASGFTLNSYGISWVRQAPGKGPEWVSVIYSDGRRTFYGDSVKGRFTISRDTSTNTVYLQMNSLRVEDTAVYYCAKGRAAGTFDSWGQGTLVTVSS
VL: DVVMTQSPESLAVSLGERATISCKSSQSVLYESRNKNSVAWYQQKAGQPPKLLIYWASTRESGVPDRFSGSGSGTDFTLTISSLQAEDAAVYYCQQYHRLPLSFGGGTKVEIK

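The variants were designed computationally from a first round of random CDR variants and then made and measured. Their group label is 14L_En_Gen (En: ensemble of fine-tuned language models; Gen: genetic algorithm). AlphaSeq pools MATa yeast showing the antibodies with MATalpha yeast showing the peptide. Binding brings cells together so that they mate, and sequencing counts the barcode pairs among the diploids. Scores were corrected for input abundance and mapped to Kd with protein pairs of known affinity run in the same pool. Mating was done six times.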

Each variant is given by its three light chain CDRs, as the data file delimits them; those of the parent are KSSQSVLYESRNKNSVA, WASTRES, QQYHRLPLS.
Scale: log10 of Kd in nM, estimated from mating counts; low values are strong binders.
Where no diploid with the target was found in that replicate, the entry reads "ND": below detection, most likely a poor binder, though not proof of it.

CDR-L1 | CDR-L2 | CDR-L3 | replicates, log10 nM | control signals
TLYGLSNSMSINKDSVA | EMTTREK | QQYDRLPLM | 3.01 / 2.45 / 2.16 / 2.41 / 2.43 / 3.69 | 2 of 18 (3.06)
KVSEFTRGLMSRQDSIA | DNVTRSN | QQYDRLPLS | ND / ND / ND / ND / 2.56 / ND | 3 of 18 (2.39)
KISFLQNQTFEQSNNVA | EMVTREK | QQYNRLPLS | 1.27 / 1.42 / 1.04 / 1.58 / 1.37 / 1.26 | 0 of 18
KIGMVLNTLSHKQNNVA | DLVTREN | QQYYRLPLS | 1.39 / 2.03 / 1.28 / 2.49 / 0.87 / 1.67 | 0 of 18
KVSEFMKGLMGRTDSIA | DNTTRGQ | QQYDRLPLS | 1.13 / 1.10 / 0.97 / 0.93 / 1.09 / 0.95 | 5 of 18 (2.73)
KLALVTGTEKVIGNNVA | EMETREK | QQYNRLPLA | 1.17 / 1.02 / 0.90 / 1.13 / 0.91 / 1.49 | 0 of 18
KLSMLTEMEHVNRNSVA | ELVTRMA | QQYNRLPLS | 0.60 / 0.28 / 0.47 / 0.29 / 0.19 / 0.31 | 1 of 18 (4.27)
IIDQIMYWGISLKNSIA | QASERLN | QQYHHLPLF | ND / 2.96 / 1.60 / 1.41 / ND / 1.21 | 0 of 18
KVSEFTRGLMSRQDSIA | DNVTRNN | QQYDRLPLS | 1.62 / 1.19 / 2.03 / 2.86 / 1.48 / 2.23 | 1 of 18 (3.24)
KLASVTGTEKVRGNNVA | EMETREN | QQYNRLPLS | 0.36 / -0.01 / 0.19 / -0.04 / 0.15 / 0.53 | 1 of 18 (3.22)
KISMVAGHMSMSRNNVA | EMVTREN | QQYDRLPLS | 0.57 / 0.29 / 0.18 / 0.36 / 0.26 / 0.46 | 1 of 18 (2.39)
KISSMVRVGSTHKNSIA | EEATRAD | QQYHRLPLA | 0.52 / 0.07 / 0.23 / 0.23 / -0.20 / 0.04 | 2 of 18 (1.13)
TISQLYNMGTFAINSVA | QASIRNS | QQYDRLPLI | 0.67 / 0.44 / 0.06 / 0.15 / 0.56 / 0.51 | 0 of 18
MVNGIMDHLSKQTNNVA | ETTTREE | QQYDRLPLT | 0.86 / 1.26 / 0.81 / 0.45 / 0.71 / 1.33 | 1 of 18 (0.97)
MISQLMNMGQFAINSVA | QAEERYN | QQYDRLPLM | ND / ND / 2.76 / ND / 2.01 / 2.57 | 0 of 18
MMSQVTGQGQRHRNNVA | QTSEREA | QQYDRLPLI | 0.30 / 0.50 / 0.38 / -0.04 / 0.11 / 0.30 | 2 of 18 (3.54)
KLSMTSEMEHKNRNSVA | ELVTRMS | QQYNRLPLS | -0.22 / 0.20 / -0.26 / 0.25 / 0.17 / 0.07 | 0 of 18
KLYDMSALTVTNIRNVA | DNSTREA | QQYHRLPLS | 0.29 / 0.20 / -0.11 / 0.14 / 0.18 / 0.26 | 0 of 18
MISQLMNMGYFAINSVA | QASERSN | QQYDRLPLM | ND / 2.48 / ND / ND / ND / ND | 0 of 18
MISQLLNMGQFAINSVA | QASIRNQ | QQYDRLPLI | ND / 2.66 / ND / ND / ND / ND | 0 of 18
IVSQLMLWGWHAKNSIA | EAQTRLH | QQYDRLPLF | 0.96 / 1.74 / 0.97 / 2.04 / 1.28 / 1.21 | 0 of 18
KIGMTLNQLLHQKSNVA | DLVMREN | QQYHRLPLS | 0.62 / 0.52 / 0.33 / 0.26 / 0.43 / 0.56 | 0 of 18
TIGQTLMSGVRNRSNVA | EVSQRLN | QQYDRLPLL | 1.28 / 1.73 / 1.40 / 1.13 / 0.84 / 1.15 | 1 of 18 (2.33)
MISNVMNTLTREGNNVA | DLAERER | QQYFRLPLS | 1.19 / 1.57 / 1.42 / 1.64 / 0.59 / 2.00 | 1 of 18 (1.89)
HITYGMQVAGRHSKSIA | QAEERAK | QQYDRLPLI | 0.82 / 1.07 / 0.90 / 0.97 / 0.78 / 1.07 | 1 of 18 (3.22)
HMSMLTLGGMRQKNSVA | QMTTREN | QQYDRLPLM | ND / ND / ND / ND / ND / ND | 0 of 18
KLMSLTGTEKVRGNNVA | EMETREK | QQYNRLPLA | 0.49 / 0.35 / 0.34 / 0.24 / 0.54 / 0.57 | 1 of 18 (4.18)
TLYGLSMAMSKNTNNVA | EMTTRED | QQYDRLPLI | 1.30 / 1.79 / 1.20 / ND / 1.97 / ND | 0 of 18
KLSMVTGHMSVSKNNVA | EMETREE | QQYDRLPLS | 0.37 / -0.04 / 0.65 / 0.47 / 0.30 / 0.85 | 0 of 18
TISQVMNTLTRNTNNVA | DLTEREK | QQYFRLPLS | 0.07 / -0.06 / 0.37 / -0.38 / -0.35 / -0.38 | 1 of 18 (1.53)
MISQLMNMGTFAINSVA | QASIRNE | QQYDRLPLQ | 1.09 / 1.03 / 1.00 / 1.14 / 0.96 / 0.79 | 0 of 18
TISQMSTLFSQTINNVA | EVSTREQ | QQYDRLPLQ | 0.56 / 1.75 / 0.79 / 1.12 / 1.33 / 0.37 | 2 of 18 (1.57)
IIDAIMFHGNKRASSIA | QASERVN | QQYHHLPLT | 1.25 / 1.71 / 1.36 / 1.28 / 1.78 / 1.92 | 0 of 18
MISQVMNTLTRHGNNVA | DLTERED | QQYFRLPLS | 1.07 / 1.24 / 0.88 / 0.88 / 0.59 / 1.48 | 0 of 18
MISQVMGLNNSYKSSVA | QAEERNQ | QQYDHLPLS | 2.22 / 1.82 / 4.30 / 1.51 / 2.47 / ND | 0 of 18
IVSELFLWGLHAKNSIA | EAEMRTN | QQYDRLPLF | 1.64 / 1.96 / 1.70 / 0.99 / 1.71 / 1.22 | 2 of 18 (2.78)

2 of these entries, quoted again:

| CDR-L1 | CDR-L2 | CDR-L3 | replicates, log10 nM | control signals |
|---|---|---|---|---|
| IIDAIMFHGNKRASSIA | QASERVN | QQYHHLPLT | 1.25 / 1.71 / 1.36 / 1.28 / 1.78 / 1.92 | 0 of 18 |
| KLYDMSALTVTNIRNVA | DNSTREA | QQYHRLPLS | 0.29 / 0.20 / -0.11 / 0.14 / 0.18 / 0.26 | 0 of 18 |

Values of this round are not directly comparable with the first-round values of the same sequences.
As a blank, each scFv also met three strains without target: over all light chain designs, 4% of these pairings were detected, typically at 2.64 and seldom below 1.59. Also given: how often the same scFv was detected with the empty control strains, with their mean in brackets.
Of ten entries with the parent sequence, four were seen in most replicates (averages 0.34 to 2.37), three in one and three in none, so single entries are noisy.
In the paper, a design with two or fewer of six values counts as a poor binder.